# Test results from US8697372B2, “Method for determining the binding of a given compound to a membrane receptor” (CIS Bio International, priority 2009, dated 2014).
# By UniProt entry, the sequences of proteins in these tests, tags left out.
# UniProt P41143, whole entry: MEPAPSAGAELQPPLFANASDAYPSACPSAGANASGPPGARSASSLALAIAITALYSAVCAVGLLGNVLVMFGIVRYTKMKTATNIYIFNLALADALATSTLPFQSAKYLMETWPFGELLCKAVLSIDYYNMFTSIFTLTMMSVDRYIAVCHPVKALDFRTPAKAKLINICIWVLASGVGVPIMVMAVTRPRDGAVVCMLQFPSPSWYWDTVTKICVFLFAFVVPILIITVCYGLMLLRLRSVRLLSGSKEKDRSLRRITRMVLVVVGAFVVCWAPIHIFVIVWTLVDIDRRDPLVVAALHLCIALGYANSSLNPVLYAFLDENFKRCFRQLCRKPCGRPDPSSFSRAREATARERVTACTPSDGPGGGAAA
# Target: T1, Delta Opioid receptor implicated in the heterodimer with Dopamine D2 (Homo sapiens, UniProt P41143)
# T1 construct: membrane-addressing signal peptide T8 (printed '18') (N); expressed in transfected cells; host or cells: HEK293T/17 cells, transient co-transfection
# Format: binding
# Settings: 3 nM red antagonist of the opioid receptor, D2 receptor labeled with HALO-Lumi4Tb, HEK293T cells, FIG. 10
substance,measurement,value
Endomorphin I [Endomorphin 1],Competition with the fluorescent reference ligand and binding to the heterodimers,compete with the fluorescent reference ligand and bind to the heterodimers
